An excerpt weighted towards active compounds, which were near 2.8% of everything screened.
PglD inh: blocks C. jejuni PglD acetyltransferase activity. purified PglD enzyme, DTNB colorimetric CoA detection. inhibition, % at 12.5 µM. actives 0.098% (n = 360,000). AID 602405; in the data active means inhibition above about 16%, passing the limit was not always enough
MITF act: MITF TRPM1 promoter activation in melanoma cells. actives 0.75% (n = 300,000). activation, % at 12.5 µM. SK-MEL-5 TRPM1-promoter luciferase, 24 h; % of positive control, neutral wells = 0;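 active means mean activation of at least 80% with every replicate also reaching 80%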;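 further: 0% = neutral control wells and 100% = parthenolide positive control wells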
esBAF inh: inhibitors of esBAF chromatin remodeling in mouse ES cells. Bmi1-luciferase knock-in reporter, 24 h; 100% = twice the neutral-well signal. reporter increase, % at 12.5 µM. actives 2% (n = 350,000); in the data active means activation above about 40%;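 further: 0% = median of the plate's neutral control wells and 100% = double that signal; a rise in the Bmi1 reporter signal indicates esBAF inhibition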
Wnt bcat act: activators of Wnt/beta-catenin signaling; AID 743398; actives 1.2% (n = 300,000); activation, % at 9.35 µM; Wnt/beta-catenin reporter cell assay, activator, plate reader; in the data active means activation above about 30%, passing the limit was not always enough;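 further: 0% = neutral control wells and 100% = positive control wells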
Yeast UUG start: modulators of start codon recognition fidelity in yeast. S. cerevisiae UUG-firefly luciferase reporter, luminescence/redox ratio. activity score, % at 18.7 µM. 350,000 tested, 0.13% active;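 active = replicate mean at a twofold rise or more, about +100% in these data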;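 note: firefly luciferase made from a UUG start codon reports start codon fidelity; reporter light over untreated wells divided by growth signal over untreated wells; some hits fall short of that in this replicate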
miR122 inh: miR-122 inhibition in Huh7 cells; Huh7 miR-122 Renilla luciferase sensor, 48 h; neutral wells = 0, positive control = 100; activation (reporter increase), % at 12.5 µM; actives 0.3% (n = 340,000); AID 602342;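 active means mean replicate activation score at least 90 and every replicate individually at or above 90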;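 further: higher luciferase means less miR-122 activity so hits act as miR-122 inhibitors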
PglD inh SP: blocks Campylobacter jejuni PglD acetyltransferase activity. shares compounds with PglD inh. Purified C. jejuni PglD, DTNB absorbance 412 nm. inhibition, % at 20 µM. 320 tested, under 10 active. AID 743156;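 active means mean inhibition across replicates of at least 20% with every single replicate also at 20% or more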;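 further: initial rate of CoA release by acetyl transfer from AcCoA to the UDP-4-amino sugar; 0% = median of neutral control wells and 100% = median of positive control wells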
An asterisk follows results filed as active; · = not tested or not shown; [ ] = remark or other dose.

SMILES	miR122 inh	PglD inh SP	MITF act	PglD inh	Wnt bcat act	Yeast UUG start	esBAF inh
CC(C)NC(=O)N(C)C[C@H]1Oc2ncc(C#CCc3ccccc3)cc2C(=O)N([C@H](C)CO)C[C@@H]1C	4[16.7 µM]	·	·	5	·	6	-2
O=C(O)c1cccnc1SC1CC(=O)N(Cc2ccccc2)C1=O (centres undefined)	-2	2	-4	39*	-7	-18	4
O=C(O)c1cccnc1SC1CC(=O)N(CCc2ccccc2)C1=O (centres undefined)	1	·	1	4	-1	3	-1
CCOC(=O)CNC(=S)N(Cc1ccccc1)Cc1cccnc1	-9	1	1	32*	0	7	1
Cc1ccc2nc(/C(C#N)=N/O)[nH]c2c1	3	-12	·	38*	0	-24	2
N#C/C(=N\O)c1nc2ccccc2[nH]1	·	·	-6	·	·	·	·
C/C(=N/OCO/N=C(/C)c1ccc(F)cc1)c1ccc(F)cc1	-3	0	0	26*	-1	-21	·
Cc1cccc2cc(C3CC(c4ccco4)=NN3C(=O)CCC(=O)O)c(Cl)nc12 (centres undefined)	-9	-6	7	23*	·	-11	·
COc1ccc2nc(Cl)c(C3CC(c4ccco4)=NN3C(=O)CCC(=O)O)cc2c1 (centres undefined)	-8	·	-6	·	·	·	-4
Cc1ccc2nc(Cl)c(C3CC(c4ccco4)=NN3C(=O)CCCC(=O)O)cc2c1 (centres undefined)	·	·	0	·	-3	·	·
Cc1ccc2cc(C3CC(c4ccco4)=NN3C(=O)CCCC(=O)O)c(Cl)nc2c1 (centres undefined)	0	2	-4	34*	3	-25	-2
C[C@@H]1CN([C@H](C)CO)C(=O)c2cc(NS(C)(=O)=O)ccc2O[C@H]1CN(C)S(=O)(=O)c1ccccc1	2[16.7 µM]	·	·	·	·	·	4
C[C@H]1CN([C@@H](C)CO)C(=O)Cc2cc(NC(=O)Cn3cnnn3)ccc2O[C@@H]1CN(C)S(C)(=O)=O	19[16.7 µM]	·	·	-1	·	-8	5
CCOc1ccccc1NC(=O)N1CCCC1C(=O)Nc1ccc(-n2cnnn2)c(C)c1 (centres undefined)	-3	1	2	25*	·	5	2
Cc1nc([N+](=O)[O-])c(Sc2nc3ccccc3n2C)n1Cc1ccccc1	0	7	-59	30*	·	-21	·
C[C@@H]1CCCCO[C@@H](CN(C)S(C)(=O)=O)[C@@H](C)CN([C@H](C)CO)C(=O)c2cc(NC(=O)Nc3ccc4c(c3)OCO4)ccc2O1	3[16.7 µM]	·	·	-2	·	33	-3
CC(=O)N1CC[C@@H]2[C@H]1c1cc(-c3ccc(C#N)cc3)ccc1N(C)[C@@H]2CO	3[16.7 µM]	·	·	8	·	-12	-6
C[C@@H]1CN([C@H](C)CO)C(=O)Cc2cc(NC(=O)CCC(F)(F)F)ccc2O[C@@H]1CN(C)S(=O)(=O)c1cn(C)cn1	-1[16.7 µM]	·	·	1	·	-11	1
COc1cccc(C(=O)NNC(=O)C(=O)Nc2cccc(Cl)c2C)c1	0	10	12	22*	1	-16	-2
c1ccc2c(c1)oc1c(NCCN3CCOCC3)ncnc12	-7	·	6	7	·	-14	2

The list goes on (five carried over from the part before).
SMILES	miR122 inh	PglD inh SP	MITF act	PglD inh	Wnt bcat act	Yeast UUG start	esBAF inh
C[C@@H]1CCCCO[C@@H](CN(C)S(C)(=O)=O)[C@@H](C)CN([C@H](C)CO)C(=O)c2cc(NC(=O)Nc3ccc4c(c3)OCO4)ccc2O1	3[16.7 µM]	·	·	-2	·	33	-3
CC(=O)N1CC[C@@H]2[C@H]1c1cc(-c3ccc(C#N)cc3)ccc1N(C)[C@@H]2CO	3[16.7 µM]	·	·	8	·	-12	-6
C[C@@H]1CN([C@H](C)CO)C(=O)Cc2cc(NC(=O)CCC(F)(F)F)ccc2O[C@@H]1CN(C)S(=O)(=O)c1cn(C)cn1	-1[16.7 µM]	·	·	1	·	-11	1
COc1cccc(C(=O)NNC(=O)C(=O)Nc2cccc(Cl)c2C)c1	0	10	12	22*	1	-16	-2
c1ccc2c(c1)oc1c(NCCN3CCOCC3)ncnc12	-7	·	6	7	·	-14	2
c1ccc2c(c1)oc1c(Nc3ccc(CN4CCOCC4)cc3)ncnc12	-1	1	15	20*	·	-26	-9
Nc1n[nH]c(C(F)(F)F)c1-c1ccccc1	0	·	11	-7	-1	-7	-6
Nc1n[nH]c(-c2ccccc2)c1-c1ccccc1	-1	-3	0	33*	-3	-17	2
C[C@H](NC(N)=O)C(=O)Nc1ccc2c(c1)OCO2	0	3	2	22*	-8	-9	·
CC(C)(C)c1cc[n+](-c2[nH]c(=O)sc2/C=N/NC([S-])=Nc2ccccc2)cc1	2	3	·	21*	-3	-23	0
CCC(=O)N(C)C[C@H]1Oc2cc(-c3ccncc3)ccc2S(=O)(=O)N([C@@H](C)CO)C[C@H]1C	6[16.7 µM]	·	·	-4	·	10	-7
COc1ccc(C(CNc2ccc(S(C)(=O)=O)cc2[N+](=O)[O-])N(C)C)cc1OC (centres undefined)	2	2	2	23*	-3	-27	1
Cc1cc(C)cc(NC(=O)Nc2ccc3c(c2)C(=O)N(C)[C@@H]2CC[C@@H](CC(=O)O)O[C@@H]2CO3)c1	-7[16.7 µM]	·	·	3	·	-1	-5
CC(=O)c1ccc(N2CCN(CCC#N)CC2)c(F)c1	0	1	-1	26*	·	-10	-5
CCCC(=O)c1cc(F)c(N2CCN(CCC#N)CC2)cc1C	-14	·	·	-2	15	-18	1
O=C(CSCCO)Nc1cccc(C(F)(F)F)c1	-2	-1	5	23*	·	-22	6
Nc1c(N2CCCC2)c2ccccc2oc1=O	-5	-4	-3	21*	1	1	·
CO[C@H]1CN(C)C(=O)c2ccc(NC(=O)Nc3ccccc3F)cc2OC[C@@H](C)N(CC2CC2)C[C@H]1C	·	·	·	0	·	·	-11
C=C(C)C(=O)Nc1cccc(C2=NOC3(C2)C[C@@H](C(N)=O)N(C(=O)C2(C)CC2)C3)c1 (some centres undefined)	1	2	7	23*	-3	1	7
CCOC(=O)C1CCCN(CCC(=O)Nc2ccc(Br)c(C)c2)C1 (centres undefined)	0	0	·	71*	1	-7	8
CCOc1ccc(NC(=O)NN2C(C)CCCC2C)cc1 (centres undefined)	·	6	-22	20*	-1	-1	-4
CCOc1ccc(NC(=S)NN2C(C)CCCC2C)cc1 (centres undefined)	2	·	-10	2	·	-29	·
CCCCn1c(SCC(=O)c2ccc(OCC)cc2)nc2cc(S(N)(=O)=O)ccc21	-5	·	9	2	·	-4	2
CCCCn1c(SCC(=O)N2CCCCC2)nc2cc(S(N)(=O)=O)ccc21	0	2	-14	45*	·	-5	-3
CCc1ccc(/C=C2\SC(=S)N(CCC(=O)Nc3cc(C)on3)C2=O)cc1	·	·	-39	·	-4	·	·
CCc1ccc(/C=C2\SC(=S)N(CCCC(=O)Nc3cc(C)on3)C2=O)cc1	-4	-2	·	21*	-1	-11	-69
CC(C)n1nc(Cc2cccc3ccccc23)c(C#N)c1N	·	-5	4	89*	0	-2	-3
C[C@H](CO)N1C[C@H](C)[C@@H](CN(C)C(=O)Nc2ccc3c(c2)OCO3)Oc2ccc(NC(=O)Nc3ccccc3)cc2CC1=O	-8[16.7 µM]	·	·	7	·	4	1
CCOC(=O)C1=C(C)NC(C)=C(C(=O)OCC)C1C(=O)OCC(=O)N1CCCCC1C (centres undefined)	0	·	3	-3	-4	0	-3

From PubChem BioAssay
